Assay results reported in patent publication US5738858A (dated 1998).

Target: T1, LRAT (Bos taurus, UniProt Q9BGL2)
T1 sequence (Q9BGL2 1-230): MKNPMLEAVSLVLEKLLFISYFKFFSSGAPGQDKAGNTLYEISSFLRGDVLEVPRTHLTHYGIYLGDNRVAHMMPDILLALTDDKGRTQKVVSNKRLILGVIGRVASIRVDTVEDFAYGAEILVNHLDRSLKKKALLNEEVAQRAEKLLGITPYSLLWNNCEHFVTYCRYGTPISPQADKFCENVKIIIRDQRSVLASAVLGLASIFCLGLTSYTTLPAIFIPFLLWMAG
Assay: In vitro microsomal esterification of retinol, LRAT catalyzed (retinyl laurate formation)
Conditions: 100 μM; Table 2; 1 hour, 37° C.

% INHIB. LRAT: 0%
Structure (SMILES): CCCCCCCC/C=C\CCCCCCCC[N+](C)(C)[O-] [oleamine oxide]
